Source: PubChem BioAssay AID875 (National Center for Advancing Translational Sciences (NCATS), 2007)
Only a part is listed here, and it is no random draw. Calls of active or inactive are those of the source. The call rests on the fitted dose curve; in most records, active means well fitted inhibition curve with a large enough effect; inconclusive means small, poorly fitted or top-dose-only effect; inactive means no such curve, though single readings can be large or run the other way.

By UniProt entry, the sequences of proteins in these tests, tags left out.
UniProt P38398, whole entry: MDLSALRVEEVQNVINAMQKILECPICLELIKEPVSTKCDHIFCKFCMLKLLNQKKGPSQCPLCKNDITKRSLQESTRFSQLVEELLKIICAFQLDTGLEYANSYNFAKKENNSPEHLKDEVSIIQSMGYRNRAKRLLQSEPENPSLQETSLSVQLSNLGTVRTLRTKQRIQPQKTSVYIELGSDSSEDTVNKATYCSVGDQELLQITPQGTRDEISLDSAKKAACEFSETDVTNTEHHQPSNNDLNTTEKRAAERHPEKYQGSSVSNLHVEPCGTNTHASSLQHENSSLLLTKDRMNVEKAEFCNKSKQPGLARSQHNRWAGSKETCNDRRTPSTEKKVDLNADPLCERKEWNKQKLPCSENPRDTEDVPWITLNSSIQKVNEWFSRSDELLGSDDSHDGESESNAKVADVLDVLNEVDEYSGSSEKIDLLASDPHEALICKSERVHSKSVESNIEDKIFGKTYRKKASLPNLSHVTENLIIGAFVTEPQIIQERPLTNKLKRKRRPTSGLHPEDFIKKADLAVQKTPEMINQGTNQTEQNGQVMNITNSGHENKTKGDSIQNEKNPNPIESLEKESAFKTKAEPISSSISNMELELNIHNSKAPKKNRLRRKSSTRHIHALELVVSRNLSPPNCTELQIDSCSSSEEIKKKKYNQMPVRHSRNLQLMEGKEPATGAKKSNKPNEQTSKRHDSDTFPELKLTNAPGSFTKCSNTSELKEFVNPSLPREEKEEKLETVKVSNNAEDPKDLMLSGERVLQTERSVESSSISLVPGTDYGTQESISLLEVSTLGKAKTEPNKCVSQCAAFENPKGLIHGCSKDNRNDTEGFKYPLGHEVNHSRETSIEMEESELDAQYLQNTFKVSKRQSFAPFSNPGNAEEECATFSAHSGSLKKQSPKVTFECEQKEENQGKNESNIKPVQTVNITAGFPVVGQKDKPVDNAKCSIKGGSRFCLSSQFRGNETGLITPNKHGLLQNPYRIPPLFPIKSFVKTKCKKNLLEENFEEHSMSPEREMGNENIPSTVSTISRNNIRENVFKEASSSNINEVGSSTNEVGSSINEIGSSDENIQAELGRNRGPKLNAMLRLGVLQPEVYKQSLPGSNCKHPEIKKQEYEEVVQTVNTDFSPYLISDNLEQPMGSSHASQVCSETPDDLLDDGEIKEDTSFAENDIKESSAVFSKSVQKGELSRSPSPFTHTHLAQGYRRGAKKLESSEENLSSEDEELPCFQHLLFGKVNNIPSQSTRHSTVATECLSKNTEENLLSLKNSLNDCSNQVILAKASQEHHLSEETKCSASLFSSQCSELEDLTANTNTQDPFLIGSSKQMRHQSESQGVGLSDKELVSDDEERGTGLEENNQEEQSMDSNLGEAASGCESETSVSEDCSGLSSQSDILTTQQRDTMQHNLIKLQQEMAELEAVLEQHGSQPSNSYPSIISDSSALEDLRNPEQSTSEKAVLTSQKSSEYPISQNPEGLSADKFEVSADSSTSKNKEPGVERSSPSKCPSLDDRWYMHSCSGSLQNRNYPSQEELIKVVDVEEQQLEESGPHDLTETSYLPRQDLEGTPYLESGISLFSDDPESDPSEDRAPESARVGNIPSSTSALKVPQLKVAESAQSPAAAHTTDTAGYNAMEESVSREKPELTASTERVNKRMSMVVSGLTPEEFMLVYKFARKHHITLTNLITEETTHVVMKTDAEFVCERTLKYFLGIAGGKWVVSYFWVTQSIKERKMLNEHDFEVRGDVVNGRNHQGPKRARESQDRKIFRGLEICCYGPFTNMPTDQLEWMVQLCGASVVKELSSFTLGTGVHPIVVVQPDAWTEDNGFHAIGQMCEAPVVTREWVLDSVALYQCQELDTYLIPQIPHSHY

biological target: Breast cancer type 1 susceptibility protein (Homo sapiens) (UniProt P38398); experiment: qHTS Assay for Inhibitors of BRCT-Phosphoprotein Interaction (Green Fluorophore); conditions: BRCA1 BRCT-phosphopeptide binding, green fluorescence polarization; at 76.9 µM (top of the series) unless noted;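 further: plate controls were peptide without protein for full effect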
Method: NIH Molecular Libraries Screening Centers Network [MLSCN]
NIH Chemical Genomics Center [NCGC]
PI Name: Natarajan, Amarnath; University of Texas
A complex of BRCT (C-terminal portion of BRCA1, MW ~35 kDa, His-tagged) and fluorescently labeled pBACH1 phosphorylated 10 aa peptide fragment of BACH1, a helicase implicated in DNA repair, is incubated with library members. Inhibitors of BRCT-pBACH1 binding are detected by a decrease in the fluorescence polarization (FP) of the fluorophore. In order to minimize the effect of fluorescence artifacts and to increase the overall robustness of the screen, the compound library members were incubated in separate reactions with fluorescein labeled probe-protein complexes. Protein and labeled probes were supplied by Dr. Amarnath Natarajan, Department of Pharmacology and Toxicology, University of Texas Medical Branch Galveston, TX.
Assay Buffer: 16mM Na2HPO4, 4 mM NaH2PO4, 150 mM NaCl, 1 mM EDTA, 1 mM DTT, 0.02% NaN3, and 0.01% Tween 20 at pH 7.3.
100 nM labeled decapeptide/250 nM protein in columns 1, 2, 5 - 48. Titration of unlabeled decapeptide control (from 10 mM, then 1:2 dilution in duplicate) pin-transferred to column 2, rows 1 to 16. Column 1 is neutral.
Three uL of reagents were dispensed to 1536-well Greiner black solid-bottom plates. Compounds and controls (23 nL) were transferred
via Kalypsys PinTool. The plates were incubated for 12 min at room temperature, and then read on ViewLux (Perkin-Elmer) High throughput CCD imager using FITC for the fluorescein-labeled decapeptide probe polarization filter sets. During dispense, reagent bottles were kept submerged into 4 deg C water bath and all liquid lines were covered with aluminum foil to minimize probe and protein degradation. All screening operations were performed on a Kalypsys robotic system (Kalypsys, Inc., San Diego, CA) containing one RX-130 and two RX-90 anthropomorphic robotic arms. The timing and order of assay plates passing through the screening system were adjusted such that each compound library plate was assayed against the fluorescein- and rhodamine-labeled assay systems at immediately adjacent time points.

Row | SMILES | activity change, negative = inhibition
1 | CP(=O)(Nc1ccccc1F)Oc1ccccc1 (configuration not stated) | inactive: -1.36%
2 | Cc1cccc([N+](=O)[O-])c1[N+](=O)[O-] | inactive: -2.35%
3 | CCC(C)(OO)OOC(C)(CC)OO (configuration not stated) | inactive: -0.367%
4 | CN(C)CCOC(=O)C(O)(c1ccccc1)C1CCCCC1 (configuration not stated) | inactive: -1.54%
5 | Cc1ccc([N+](=O)[O-])c([N+](=O)[O-])c1 | inactive: -0.806%
6 | Cc1c([N+](=O)[O-])cccc1[N+](=O)[O-] | inactive: -7.72%
7 | CCOP(C)(=S)SCC(=O)NC(C)(CC)C(=O)O (configuration not stated) | inactive: -3.36%
8 | CCOP(=O)(CC)OCC | inactive: 0.0277%
9 | [NH4+].[O-][Cl+3]([O-])([O-])[O-] | inactive: 4.57%
10 | CCN(CCCl)Cc1ccccc1C | inactive: -2.44%
11 | Cc1ccccc1NP(C)(=O)Nc1ccccc1C | inactive: -1.39%
12 | NNC(NN)NN.n1nc(-c2nn[nH]n2)n[nH]1 | inactive: 0.63% [at 15.4 µM]
13 | CP(=O)(Nc1ccc2c(c1)OCCO2)Oc1ccccc1 (configuration not stated) | inactive: -2.13%
14 | OCCSCCO | inactive: 0.82% [at 3.08 µM]
15 | COc1ccccc1OP(C)(=O)Nc1c(C)n(C)n(-c2ccccc2)c1=O (configuration not stated) | inactive: -1.18%
16 | CP(=O)(Oc1ccccc1)N1CCOC1=O (configuration not stated) | inactive: -2.56%

Row | SMILES | activity change, negative = inhibition
17 | N#[O+].[C-]#N.[C-]#N.[C-]#N.[C-]#N.[C-]#N.[Fe+2].[Na+].[Na+] | inactive: -1.74%
18 | C/C1=C2N=C(/C=C3N=C(/C(C)=C4\[N-][C@@](C)([C@H]5N=C1[C@@](C)(CCC(=O)NC[C@H](C)OP(=O)([O-])O[C@@H]1[C@H](O)[C@H](n6cnc7cc(C)c(C)cc76)O[C@@H]1CO)[C@@H]5CC(N)=O)[C@](C)(CC(N)=O)[C@H]4CCC(N)=O)[C@@](C)(CC(N)=O)[C@@H]\3CCC(N)=O)C(C)(C)[C@@H]/2CCC(N)=O.[C-]#N.[Co+3] | inactive: -1.46% [at 34.4 µM]
19 | COc1ccccc1OP(C)(=O)Nc1ccc(C)c(C)c1 (configuration not stated) | inactive: -1.29%
20 | Cc1nc2ccc3ccccc3c2o1.O=[N+]([O-])c1cc([N+](=O)[O-])c(O)c([N+](=O)[O-])c1 | inactive: -5.89%
21 | CP(=O)(Nc1ccccn1)Oc1ccccc1 (configuration not stated) | inactive: -0.69%
22 | O=[N+]([O-])[O-].[NH4+] | inactive: 0.0639%
23 | Cc1ccc(NP(C)(=O)Oc2ccccc2)c(C)c1 (configuration not stated) | inactive: -0.539%
24 | COc1ccccc1OP(C)(=O)Nc1ccc(C)cc1 (configuration not stated) | inactive: 1.67%
25 | N1=C(c2nnc(-c3nn[nH]n3)nn2)NNN1 | inactive: -0.372% [at 15.4 µM]
26 | CP(=S)(Nn1cnnc1)Oc1ccccc1 (configuration not stated) | inactive: -1.71%
27 | CP(=O)(NC(=O)Nc1ccccc1)Oc1ccccc1 (configuration not stated) | inactive: -2.36%
28 | CCOP(C)(=S)SCC(=O)NC(C)C(=O)O (configuration not stated) | inactive: 0.625%
29 | Cc1nc2ccc3ccccc3c2s1.O=[N+]([O-])c1cc([N+](=O)[O-])c(O)c([N+](=O)[O-])c1 | inactive: -0.0423%
30 | O=[N+]([O-])c1cccc([N+](=O)[O-])c1 | inactive: -0.669%
31 | Cc1ccc([N+](=O)[O-])cc1[N+](=O)[O-] | inactive: -0.778%
32 | Cc1ccc(C)c(NP(C)(=O)Oc2ccccc2)c1 (configuration not stated) | inactive: -0.368%
